{"source": "paper PMC6848745", "about": "(Psychopharmacology, 2018)", "origin": "cited, not measured here", "details": "humans, after a 200 μg p.o. dose; ref Dolder et al. 2015; cited from earlier work"}
{"compound": "CCN(CC)C(=O)[C@@H]1C=C2c3cccc4[nH]cc(c34)C[C@H]2N(C)C1", "note": "[LSD, (+)-Lysergic acid diethylamide]", "values": [{"measurement": "concentration in cerebrospinal fluid (CSF)", "value": "0.6 to 0.8", "unit": "nM"}]}
